Data taken from patent publication US6479509B1, “Method of promoting smoking cessation” (priority 2000, dated 2002).

System: nicotine-induced antinociception
Experiment: Blockade of nicotine-induced antinociception, tail-flick test
Type: in vivo
Conditions: mice
Method: Anitinociception. The tail-flick method of D'Amour and Smith (1941) as modified by Dewey et al. (1970) was used. A control response (2-4 s) was determined for each animal before treatment, and a test latency was determined after drug administration. To minimize tissue damage, a maximum latency of 10 s was imposed. Antinociceptive response was calculated as percent maximum possible effect (% MPE), where % MPE=[((test-control)/(10-control))×100], Groups of 8 to 12 animals were used for each dose and for each treatment. Mice were tested 5 min after nicotine administration for the dose-response evaluation. Antagonism studies were carried out by pretreating the mice s.c. with either saline or various drugs at different times before nicotine. The animals were tested 5 min after administration of nicotine.
Data were analyzed statistically by an analysis of variance followed by the Fisher's P least-significant difference multiple comparison test. The null hypothesis was rejected at the […]. ED50, EC50, and AD50 (antagonist dose 50%) values with 95% CLs were calculated by unweighted least-squares linear regression as described by Tallarida and Murray (1987).

Structure (SMILES): COC(=O)[C@@H]1[C@@H](c2ccc(I)cc2)C[C@@H]2CC[C@H]1N2C
- AD50 Tail-Flick (blocking antinociception of nicotine 2.5 mg/kg, systemic administration): 19.1 μmol/hg
- Relative potency in blocking nicotine's antinociceptive effect (in words, comparator in the value) (tail-flick): much less potent than cocaine
